Tests used:
Assay type in all cases: cell-based
[1] = target: 5-HT2B (Homo sapiens (Human), UniProt P41595); assay: IP assay (Eurofins, IP1 HTRF), HEK293 cells; details: for Selectivity EC50 5-HT2B/EC50 5-HT2A: bounds are conservative estimates; for EC50: read-out: 5-HT2B EC50, duplicate determinations, tested form: HCl;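 as to all read-outs here: agonist effect read as cellular IP1 production by HTRF using a europium cryptate anti-IP1 antibody donor and D2-labeled IP1 acceptor, eight compound concentrations in each cell line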
[2] = target: T1, human 5-HT2A (Homo sapiens (Human), UniProt P28223); assay: IP assay (Eurofins, IP1 HTRF), HEK293 cells; details: for 5-HT2A Rmax: % of Rmax of 5-HT, tested form: HCl; for EC50: read-out: 5-HT2A EC50, duplicate determinations, tested form: HCl
[3] = target: T1, human 5-HT2A; assay: Ca2+/Fluo-4 assay, stable h5-HT2A-HEK293 cell line; details: tested form: HCl; for 5-HT2A Rmax ± S.E.M: % of the Rmax of 5-HT; for Selectivity EC50 5-HT2C/EC50 5-HT2A: Ca2+/Fluo-4 assay, bounds are conservative estimates; for 5-HT2A [pEC50 ± S.E.M.] / EC50: agonist potency, n = 3-4; for EC50: read-out: 5-HT2A EC50
[4] = target: 5-HT2C (Homo sapiens (Human), UniProt P28335); assay: Ca2+/Fluo-4 assay, stable h5-HT2C-HEK293 cell line; details: tested form: HCl;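 also: Agonist-induced intracellular Ca2+ rise read by Fluo-4 fluorescence in HEK293 cells stably expressing the human 5-HT2C receptor, each compound run in duplicate on three or more occasions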

Amino acid sequences for entries named in this document (tags omitted). Residues count along the entry.
UniProt P41595, whole entry: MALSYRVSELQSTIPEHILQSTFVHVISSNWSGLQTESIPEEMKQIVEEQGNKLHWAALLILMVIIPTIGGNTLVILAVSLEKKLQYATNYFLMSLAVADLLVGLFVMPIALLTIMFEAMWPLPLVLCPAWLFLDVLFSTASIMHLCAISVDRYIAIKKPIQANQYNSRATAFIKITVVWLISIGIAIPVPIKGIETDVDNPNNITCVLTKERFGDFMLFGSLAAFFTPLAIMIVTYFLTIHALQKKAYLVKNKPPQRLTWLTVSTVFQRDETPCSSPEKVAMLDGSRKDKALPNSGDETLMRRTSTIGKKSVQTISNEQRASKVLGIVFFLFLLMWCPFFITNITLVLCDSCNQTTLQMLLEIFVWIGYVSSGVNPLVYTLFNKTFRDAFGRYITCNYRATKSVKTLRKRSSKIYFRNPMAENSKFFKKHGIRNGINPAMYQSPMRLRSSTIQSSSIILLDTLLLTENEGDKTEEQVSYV
UniProt P28223, whole entry: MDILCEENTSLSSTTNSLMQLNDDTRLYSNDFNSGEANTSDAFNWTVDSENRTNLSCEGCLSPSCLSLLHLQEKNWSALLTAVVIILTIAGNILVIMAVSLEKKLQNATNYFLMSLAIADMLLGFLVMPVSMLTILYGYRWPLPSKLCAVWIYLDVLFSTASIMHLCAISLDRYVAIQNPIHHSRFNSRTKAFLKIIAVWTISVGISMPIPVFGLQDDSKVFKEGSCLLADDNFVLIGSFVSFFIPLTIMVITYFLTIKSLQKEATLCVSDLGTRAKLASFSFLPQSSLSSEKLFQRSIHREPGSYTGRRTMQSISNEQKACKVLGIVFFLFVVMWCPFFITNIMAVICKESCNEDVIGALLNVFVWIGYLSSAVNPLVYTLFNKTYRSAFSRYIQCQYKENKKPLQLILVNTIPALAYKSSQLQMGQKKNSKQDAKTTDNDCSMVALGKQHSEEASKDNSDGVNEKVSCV
UniProt P28335, 33-458 limits assumed: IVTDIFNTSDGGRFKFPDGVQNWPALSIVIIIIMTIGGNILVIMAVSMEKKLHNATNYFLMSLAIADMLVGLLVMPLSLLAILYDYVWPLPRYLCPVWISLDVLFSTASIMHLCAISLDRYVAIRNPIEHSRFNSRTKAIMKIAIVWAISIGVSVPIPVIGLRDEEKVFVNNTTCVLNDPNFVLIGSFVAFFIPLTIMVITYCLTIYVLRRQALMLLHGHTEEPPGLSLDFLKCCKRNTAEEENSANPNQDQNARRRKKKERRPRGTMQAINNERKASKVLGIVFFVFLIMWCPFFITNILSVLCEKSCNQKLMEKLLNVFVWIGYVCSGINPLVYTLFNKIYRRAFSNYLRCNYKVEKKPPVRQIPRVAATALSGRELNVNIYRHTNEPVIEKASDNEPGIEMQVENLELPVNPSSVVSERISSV

Row | SMILES | 5-HT2B Rmax ([1]; % of Rmax of 5-HT, tested form: HCl) [%] | Selectivity EC50 5-HT2B/EC50 5-HT2A ([1]; tested form: HCl) | EC50 [1] [nM] | 5-HT2A Rmax [2] [%] | EC50 [2] [nM] | 5-HT2A Rmax ± S.E.M [3] [%] | Selectivity EC50 5-HT2C/EC50 5-HT2A [3] | 5-HT2A [pEC50 ± S.E.M.] [3] | EC50 [3] [nM] | 5-HT2C Rmax ± S.E.M ([4]; % of the Rmax of 5-HT) [%] | 5-HT2C [pEC50 ± S.E.M.] ([4]; agonist potency, n = 3-4) | EC50 ([4]; read-out: 5-HT2C EC50, agonist potency, n = 3-4) [nM] | 5-HT2B agonist activity (n.a.) ([1]; up to 100 μM (Table 3), tested form: HCl) | 5-HT2C agonist activity (n.a./w.a.) ([4]; tested up to 50 μM)
1 | COc1cc(C(F)(F)F)c(SC)cc1[C@@H]1CCCNC1 | 63 | 6.6 | 92 | 71 | 14 | 82 ± 3 | 18 | [8.04 ± 0.02] | 9.1 | 22 ± 4 | [6.78 ± 0.13] | 170 |  | 
2 | CCOc1cc([C@@H]2CCCNC2)c(OCC)cc1CC |  | > 100 | > 100000 | 62 | 720 | 44 ± 5 | > 100 | [6.42 ± 0.09] | 380 |  |  |  | n.a. [@ 100 μM]^a > (no agonist activity: the compound did not evoke significant responses at concentrations up to 100 μM) | w.a.

Reference: US11642336B2, “5-HT2A agonists for use in treatment of depression” (priority 2019, dated 2023)
